Experimental data published in ChEMBL document CHEMBL3297699, “Synthesis of novel fluoro analogues of MKC442 as microbicides” (J Med Chem, 2014).

Test: Cytotoxicity against human MT4 cells after 96 hrs by MTT assay
Type: cell-based

Cc1cc(C#N)cc(C)c1Oc1nc(Nc2ccc(C#N)cc2)nc(N)c1Br [ETRAVIRINE]
CC50 at 96 h: 11 µM
